How the values were obtained:
[1] = Selectivity ratio of IC50 for FLT3 to IC50 for human recombinant C-met
[2] = Selectivity ratio of IC50 for TrkA to IC50 for human recombinant C-met

Ratio IC50 [1]: 17
Ratio IC50 [2]: 50
SMILES: O=C(Nc1ccc(F)cc1F)c1cccnc1Nc1ccc(Oc2ccnc3[nH]ccc23)c(F)c1
